For 24 compounds, activity, negative = IMPase inhibition results are on record in PubChem BioAssay AID1457 (National Center for Advancing Translational Sciences (NCATS), 2008).

Values joined by “and” are separate entries in the source; they are usually repeats but may differ in a detail not shown here. Equal values may be shown once. The entries are a selection whose mix differs from that of the whole data set. Active and inactive are the calls of the source. Calls come from the whole dose curve; as a rule, active = well fitted inhibition curve with a large enough effect; inconclusive = small, poorly fitted or top-dose-only effect; inactive = no such curve, though single readings can be large or run the other way.

The assay is described as follows: qHTS Assay for Identifying the Cell-Membrane Permeable IMPase Inhibitors: Potentiation with Lithium.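 Note: IP1 builds up when IMPase is blocked and the TR-FRET signal falls; plate controls were basal vehicle for no effect and high inhibitor control for full effect; nearly all actives have a fitted effect of over 50% in size.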 Particulars: CHO-M1 cells, IP1 TR-FRET (IP-One), carbachol + lithium; at 59.4 µM (top of the series) unless noted. Background: qHTS replaces the single test concentration by a dilution series.
Turning to `O=P1(Nc2ccccn2)COc2ccccc2OC1`, the activity, negative = IMPase inhibition was inactive: 17.1% [at 38.3 µM].

As to `CN(CCCl)Cc1cc(Cl)c(NC2=NCCN2)c(Cl)c1`, the activity, negative = IMPase inhibition is inactive: 22.8% and inactive: 14.6%.

Turning to `CC(C)/C=N\N=C(\N)N[N+](=O)[O-]`, the activity, negative = IMPase inhibition is inactive: -3.64%. Turning to `CC1CCC(C(C)C)C(OP(=O)(Nc2ccccn2)c2ccccc2)C1` (centres undefined), the activity, negative = IMPase inhibition is inactive: 17.6%. Consider `Cc1nn(-c2ccccc2)c2c1P(=O)(N1CCOCC1)N(C)C(c1ccccc1)=N2` (centres undefined), for which the activity, negative = IMPase inhibition is inactive: -4.09% [at 38.3 µM].

With `CN(C)C1(CNC(=O)c2ccc(S(C)(=O)=O)cc2)CCCCC1`, the activity, negative = IMPase inhibition was inactive: -4.32%. In the case of `O=P1(Nc2ncccn2)COc2ccccc2OC1`, the activity, negative = IMPase inhibition is inactive: 21.2% [at 38.3 µM]. For `Cc1ccc(OCC(=O)OC2CN3CCC2CC3)cc1` (centres undefined), the activity, negative = IMPase inhibition was inactive: 25.1% [at 38.3 µM]. To `O=P1(Nc2ccc(Br)cn2)COc2ccccc2OC1` belongs inactive: 5.36% [at 38.3 µM]. Regarding `O=P(Nc1nccs1)(Oc1ccccc1)Oc1ccccc1`, the activity, negative = IMPase inhibition was inactive: -3.05%.

Take `O=P(Nc1nccs1)(c1ccccc1)c1nc2ccccc2s1` (centres undefined): the activity, negative = IMPase inhibition was inactive: 39% [at 38.3 µM]. With `CCOP1(=S)c2c(C)nn(CCC#N)c2N=C(c2ccccc2F)N1C` (centres undefined) the figure was inactive: 19.8% [at 38.3 µM]; with `O=[As](O)(O)c1ccc([As](=O)(O)O)cc1`, inactive: -1.79%. To `O=[N+]([O-])CC(O)c1ccc([N+](=O)[O-])cc1` (centres undefined) belongs inactive: 48.5%; to `NC(=O)Nc1ccc([As](=O)(O)O)cc1`, inactive: 7.27% and inactive: -7.98%. `CN(C(=O)Cc1ccccc1)[C@@H]1CC[C@]2(CCCO2)C[C@H]1N1CCCC1`: the activity, negative = IMPase inhibition is inactive: 10.8%.

As for `CCOP1(=S)c2c(C)nn(CCC#N)c2N=C(c2ccc(F)cc2)N1C` (centres undefined), the activity, negative = IMPase inhibition is inactive: 3.28% [at 38.3 µM]. Regarding `O=[N+]([O-])c1ccc2c(c1)nnn2O`, the activity, negative = IMPase inhibition is inactive: 14.7% [at 38.3 µM]. With `CN(C(=O)Cc1ccc(Cl)c(Cl)c1)[C@@H]1CC[C@]2(CCCO2)C[C@H]1N1CCCC1` the figure was inactive: -7.03% and inactive: 11.2%; with `COc1cc(C(=O)NCC2(N3CCOCC3)CCCCC2)cc(Cl)c1OC(C)C`, inactive: 8.66%. Consider `Cc1cccc(OCC(=O)OC2CN3CCC2CC3)c1` (centres undefined), for which the activity, negative = IMPase inhibition was inactive: 5.1% [at 38.3 µM]. As for `NS(=O)(=O)Cc1ccc([As](=O)(O)O)cc1`, the activity, negative = IMPase inhibition was inactive: 9.42%.

In the case of `Cc1ccc(NCCc2c([N+](=O)[O-])cc([N+](=O)[O-])cc2[N+](=O)[O-])cc1`, the activity, negative = IMPase inhibition is inactive: 9.4%. As for `O=C(CC(=O)c1ccccc1)O[C@H]1CN2CCC1CC2`, the activity, negative = IMPase inhibition is inactive: 22%.
